Source: patent publication US6998423B2, “Prevention of loss and restoration of bone mass by certain prostaglandin agonists” (priority 1996, dated 2006)

System: Bone Morphogenetic Protein 7 (BMP-7) expression in wild type 293S cells
Assay: Induction of BMP-7 expression (Northern blot) in wild type (parental) 293S cells
Assay type: cell-based, human
Conditions: parental 293S cell line; 10^−6M; RNA extracted at 8, 16 and 24 hours; Northern blot with 32P-labeled BMP-7 probe
Description: Methods: 293S and EP2 293S cells were grown in Dulbecco's Modified Egale medium (DMEM, Gibco, BRL; Gaithersburg, Md.). One day prior to treatment with PGE2or a prostaglandin agonist, cells were plated at a density of 1.5×10^6 cells /10 cm dish. […] Cells were harvested and RNA extracted at 8, 16 and 24 hours. Northern blot analysis of total ([…] ) was carried out by probing the blots with ^32P-labeled BMP-7 probe. The blots were normalized for RNA loading by hybridization with ^32P-labeled 18s ribosomal RNA probe. […] Given the known role of BMP-7 in kidney regeneration and the ability of a prostaglandin agonist to induce BMP-7 expression in 293S kidney cells in a time and receptor specific manner indicates a role for a prostaglandin agonist in kidney regeneration.

SMILES: CCCCC[C@H](O)/C=C/[C@H]1[C@H](O)CC(=O)[C@@H]1C/C=C\CCCC(=O)O [PGE2, prostaglandin E2]
- induction of the expression of BMP-7: not in the parental cell line
